Source: patent US7368477B2, “Benzofuranyl alkanamine derivatives and uses thereof” (Wyeth, priority 2005, dated 2008)

Chains of the proteins cited; added tags and fusions are not shown. Residues count along the entry.
UniProt P28335, 33-458: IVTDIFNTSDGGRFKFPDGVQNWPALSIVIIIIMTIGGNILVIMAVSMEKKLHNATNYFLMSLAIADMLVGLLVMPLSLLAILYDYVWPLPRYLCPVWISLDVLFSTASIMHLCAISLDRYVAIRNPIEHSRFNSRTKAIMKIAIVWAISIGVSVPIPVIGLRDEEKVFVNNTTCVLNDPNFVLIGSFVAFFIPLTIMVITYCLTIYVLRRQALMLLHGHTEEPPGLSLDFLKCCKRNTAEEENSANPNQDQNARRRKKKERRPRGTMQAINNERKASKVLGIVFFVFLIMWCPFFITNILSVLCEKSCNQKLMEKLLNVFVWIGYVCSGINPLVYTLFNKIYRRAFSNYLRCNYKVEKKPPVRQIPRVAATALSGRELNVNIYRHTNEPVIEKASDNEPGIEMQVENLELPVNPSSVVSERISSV

Experiments:
[1] = target: T1, human 5-hydroxytryptamine-2C (h5-HT2C) receptor (Homo sapiens, UniProt P28335); test: [125I]DOI binding to membranes of CHO cells expressing the human 5-HT2C receptor; details: reference compounds, [125I]DOI displacement, read-out: Ki (95% confidence interval)
T1 construct: expressed in transfected cells; host or cells: CHO (Chinese Hamster Ovary) cells; membrane preparation

[2] = target: human 5-HT2C receptor (Homo sapiens, UniProt P28335); test: Calcium mobilization (FLIPR) in CHO cells stably expressing the human 5-HT2C receptor; format: cell-based; details: reference compounds, h5-HT2C CHO cells

For `Clc1cccc(N2CCNCC2)c1` [mCPP, meta-chlorophenylpiperazine, reference compound], the Ki [1] was 6.5 nM and the EC50 [2] was 5.4 nM.
